{"source": "patent US12275803B2", "about": "“Functionalization of biopolymers with growth factor-binding peptides” (Universiteit Twente, priority 2016, dated 2025)", "molecules": {"B1": {"name": "soluble hBMP-2: soluble human BMP-2 added to the culture medium (protein)", "chain": "QAKHKQRKRLKSSCKRHPLYVDFSDVGWNDWIVAPPGYHAFYCHGECPFPLADHLNSTNHAIVQTLVNSVNSKIPKACCVPTELSAISMLYLDENEKVVLKNYQDMVVEGCGCR"}}, "tested_on": "C2C12 cells", "assay": "ALP quantification and staining", "format": "cell-based", "conditions": "200 ng/mL soluble hBMP-2 at each medium refresh; 7 days; versus films pre-incubated with hBMP-2", "description": "For cell experiments, the sterile films were washed three times with PBS and incubated with concentrated hBMP-2 in PBS for one hour with gentle agitation. Subsequently, the films were extensively washed with TBST (0.5%) and PBS to remove any traces of the washing buffer prior to cell seeding.\nC2C12 Luc express luciferase under the control of a ID1 promoter—a BMP-2 target gene (Zilberberg et al., 2007, BMC Cell Biol. 8(41). DOI: 10.1186/1471-2121-8-41).\nFor the analysis of the amount of ALP produced, C2C12 cells were seeded on films at 20,000 cells/cm2 and allowed to attach overnight. Next day the amount of FBS was reduced to 2% and the cells cultured during 7 days with medium refreshes every 3 days. After 7 days the cells were lysed and the amount of ALP quantified using the CDP-star Universal Alkaline Phosphatase Detection Kit (Sigma-Aldrich) according to the manufacturer's instructions. The values for ALP were normalized to the amount of DNA, which was quantified with the CyQUANT cell proliferation assay (Invitrogen). Staining against ALP was performed with Fast Violet B Salt (Sigma-Aldrich) dye."}
{"molecule": "B1", "values": [{"measurement": "ALP response to soluble hBMP-2", "result": "even more pronounced response"}]}
